Our source for the Kd values is publication PMC8163975 (The Journal of Biological Chemistry, 2021).

This assay addresses T1, HRAS, mGppNHp-bound (human, UniProt P01112-1 1-189).
T1 construct: human HRAS; Loaded with mGppNHp, a fluorescent non-hydrolysable GTP analogue; That the RAS proteins were the pGEX (GST) constructs is surmised; also called HRAS1; p21HRAS
Put plainly: fluorescence polarisation; increasing concentrations of the RA/RB domain as MBP fusion protein (0.002-300 µM; or MBP alone) titrated to mGppNHp-bound RAS protein (1 µM); 30 mM Tris-HCl pH 7.4, 100 mM NaCl, 5 mM MgCl2, 3 mM DTT; Kd from a quadratic ligand-binding equation. The note with it: both partners purified.

B1: RASSF7 RA domain, MBP fusion protein (domain or fragment, human, UniProt Q02833 6-89, looked up)
chain: AAMELKVWVDGIQRVVCGVSEQTTCQEVVIALAQAIGQTGRFVLVQRLREKERQLLPQECPVGAQATCGQFASDVQFVLRRTGP
notes: RASSF7 RA domain, aa 6-89 of Q02833
Broadly, the Kd is the free concentration of one partner at which half of the binding sites on the other are occupied at equilibrium, for simple one-to-one binding. Read a high Kd as a looser complex. In turn, B1 gave a Kd of 140 µM.
